From PubChem BioAssay AID1020 (Sanford-Burnham Center for Chemical Genomics, 2008)
The list shows a part of the results, in another mix than the full data. Active and inactive are the calls of the source. No stated cut-off is given here; in the data, active means inhibition above about 50%; inactive means the rest.

test system: glucose-6-phosphate dehydrogenase [Leuconostoc mesenteroides]; assay: bacterial G6PDH enzyme inhibition, coupled readout – biochemical, Leuconostoc mesenteroides enzyme, counter-screen for G6PDH-coupled screening assays (AID 1020); conditions: Purified L. mesenteroides G6PDH, diaphorase/resazurin coupled fluorescence, 45 min; at 5 µM; active compounds read high

Row | Structure (SMILES) | inhibition
1 | COc1ccc(N/C(=N/P(=O)(N2CCOCC2)N2CCOCC2)N2CCOCC2)cc1 | inactive: 4.4%
2 | O=C(COc1ccccc1)OC1CN2CCC1CC2 (centres undefined) | inactive: -4.7%
3 | COP1(=S)c2c(C)nn(CCC#N)c2N=C(c2ccc(F)cc2)N1C (centres undefined) | inactive: 20.2%
4 | CCC(C)N(CC(C)C)C(=S)SC(NC(C)=O)C(Cl)(Cl)Cl (centres undefined) | inactive: 8.5%
5 | Cc1cc(SC(NC(=O)c2ccccc2)C(Cl)(Cl)Cl)nc(C(C)C)n1 (centres undefined) | inactive: 2.8%
6 | O=P(Nc1ccccn1)(c1cccc2ccccc12)c1cccc2ccccc12 | inactive: 8.4%
7 | Cc1cc(SC(NC=O)C(Cl)(Cl)Cl)ncn1 (centres undefined) | inactive: 12.7%
8 | O=[N+]([O-])c1ncn(CCn2ncnc2[N+](=O)[O-])n1 | inactive: 6.4%
9 | Cc1ccc(NP(=O)(Oc2ccccc2)Oc2ccccc2)nc1 | inactive: -0.9%
10 | CCc1nc2c(n1)c1c(non1O)c1c2no[n+]1[O-] | inactive: 16.2%
11 | O=[N+]([O-])c1cc([N+](=O)[O-])c(CCNc2ccccc2)c([N+](=O)[O-])c1 | inactive: 7.1%
12 | O=[N+]([O-])c1cccc2n[nH]nc12 | inactive: 8.4%
13 | CC(=O)N1C2C3N(C(C)=O)C1C1N(C(C)=O)C(C(N1C(C)=O)N3C(C)=O)N2C(C)=O | inactive: 7.4%
14 | COc1ccc(C2=NCC(CBr)S2)cc1 (centres undefined) | inactive: -5.8%
15 | CC(C)=N/N=C(\N)N[N+](=O)[O-] | inactive: 10.4%
16 | CN(C)C(=O)OCCc1n(C)cc[n+]1C | inactive: -2.2%
17 | CCN(/C(=N/P(=O)(N1CCOCC1)N1CCOCC1)N1CCOCC1)c1ccc(OC)cc1 | inactive: -4.1%
18 | CN1CCCC(OC(=O)C(c2ccccc2)c2ccccc2)C1 (centres undefined) | inactive: 2.8%
19 | Clc1ccc(Cl)c(NC2=NCC(CBr)S2)c1 (centres undefined) | inactive: 5.5%
20 | COc1ccccc1OP(=O)(Nc1ccc(C)cn1)Oc1ccccc1OC | inactive: 5.1%
21 | Cc1ccc(N/C(=N/P(=O)(N2CCOCC2)N2CCOCC2)N2CCOCC2)cc1 | inactive: 1.4%
22 | NC(=O)c1cc([N+](=O)[O-])cc([N+](=O)[O-])c1N | inactive: -3.1%
23 | Oc1ccccc1CNc1ccccn1 | inactive: 0.8%
24 | O=C(NC(Sc1ccncn1)C(Cl)(Cl)Cl)c1ccccc1 (centres undefined) | inactive: 5.5%
25 | Cc1c2non([O-])c-2c(C)[n+](=O)[n+]1[O-] | inactive: 6.9%

Row | Structure (SMILES) | inhibition
26 | CC(C)CC(=O)NC(Sc1ccc(Cl)cc1)C(Cl)(Cl)Cl (centres undefined) | inactive: 2.4%
27 | Cc1cc(SC(NC(=O)c2ccc(F)cc2)C(Cl)(Cl)Cl)ncn1 (centres undefined) | inactive: -2.2%
28 | CCOP(=O)(Nc1ccccc1)OCC | inactive: 2.9%
29 | CCN(N=Nc1nonc1N)c1nonc1N | inactive: 5.9%
30 | c1ccc(-c2nn[nH]n2)c(-c2nn[nH]n2)c1 | inactive: 1.6%
31 | CCOC(=O)NC(Sc1ccccc1)C(Cl)(Cl)Cl (centres undefined) | inactive: 2.9%
32 | CCNC(=S)/N=C(\N)N[N+](=O)[O-] | inactive: 0.2%
33 | O=C(NC1CCS(=O)(=O)C1)NP(=S)(Oc1ccccc1)Oc1ccccc1 (centres undefined) | inactive: 18%
34 | O=c1c2cc([N+](=O)[O-])ccc2[nH]c2c([N+](=O)[O-])cc([N+](=O)[O-])cc12 | inactive: 13.5%
35 | CCC(=O)N1C2C3N(C(=O)CC)C1C1N(C(=O)CC)C(C(N1C(=O)CC)N3C(=O)CC)N2C(=O)CC | inactive: 5.4%
36 | COC(=O)c1cc2c(s1)N=C(c1ccccc1)N(C)P2(=O)N1CCOCC1 (centres undefined) | inactive: 5.7%
37 | Cc1ccc(OP(=O)(Nc2ccccn2)Oc2ccc(C)cc2)cc1 | inactive: 3.4%
38 | CC(=O)NC(SC(=S)N(CC(C)C)CC(C)C)C(Cl)(Cl)Cl (centres undefined) | inactive: 8%
39 | CC(C)(C)C(=O)NC(Sc1ccccc1)C(Cl)(Cl)Cl (centres undefined) | inactive: 2.1%
40 | O=P1(Nc2nc3ccc(Cl)cc3s2)COc2ccccc2O1 (centres undefined) | inactive: 2.2%
41 | CCOc1ccc(C2=NCC(CBr)S2)cc1 (centres undefined) | inactive: 3.7%
42 | CC(=O)Nc1ccc(Oc2c([N+](=O)[O-])cc([N+](=O)[O-])cc2[N+](=O)[O-])cc1 | inactive: 6.6%
43 | c1nnnn1CCn1cnnn1 | inactive: -1.8%
44 | CC(C)C(=O)NC(Sc1ccccc1)C(Cl)(Cl)Cl (centres undefined) | inactive: -2.2%
45 | O=P(Nc1nccs1)(c1ccccc1)c1ccccc1 | inactive: 1%
46 | O=P(Nc1ccccn1)(c1ccc(Br)cc1)c1ccc(Br)cc1 | inactive: 16.1%
47 | O=C(OC1CN2CCC1CC2)c1cccc(Cl)c1 (centres undefined) | inactive: 10.6%
48 | C(Cc1nn[nH]n1)Cc1nn[nH]n1 | inactive: 6.6%
49 | CC(=O)NC(SC(=S)N(C)C)C(Cl)(Cl)Cl (centres undefined) | inactive: -1.6%
